Reference: BindingDB's records for doi:10.1021/jm3011433 (Pfizer, 2013)

Target: Intermediate conductance calcium-activated potassium channel protein 4 (Homo sapiens) (UniProt O15554)
Test: Inhibition of IK (unknown origin)

IC50: > 1000 nM
Compound: NC(=O)C(c1ccccc1)(c1ccc(F)cc1)c1ccc(F)cc1 [SENICAPOC]
